Measurements reported in US20040228820A1, “Compositions comprising an amidine and an alkane polyol” (The Procter & Gamble Company, priority 2003, published 2004).

Assay: Stabilisation of amidines in aqueous solution by alkane polyols

## Hexylene glycol
  Stabilises Amidines?: No
